Target: bovine cardiac myosin (Bos taurus, UniProt Q9BE39)
Assay: Myosin activation assay (PK/LDH-coupled ATPase, bovine cardiac myofibrils)
Conditions: concentration at which the total response is increased by twenty percent

Sequences of proteins named here, by UniProt entry; tags and fusion partners are left off.
UniProt Q9BE39, whole entry: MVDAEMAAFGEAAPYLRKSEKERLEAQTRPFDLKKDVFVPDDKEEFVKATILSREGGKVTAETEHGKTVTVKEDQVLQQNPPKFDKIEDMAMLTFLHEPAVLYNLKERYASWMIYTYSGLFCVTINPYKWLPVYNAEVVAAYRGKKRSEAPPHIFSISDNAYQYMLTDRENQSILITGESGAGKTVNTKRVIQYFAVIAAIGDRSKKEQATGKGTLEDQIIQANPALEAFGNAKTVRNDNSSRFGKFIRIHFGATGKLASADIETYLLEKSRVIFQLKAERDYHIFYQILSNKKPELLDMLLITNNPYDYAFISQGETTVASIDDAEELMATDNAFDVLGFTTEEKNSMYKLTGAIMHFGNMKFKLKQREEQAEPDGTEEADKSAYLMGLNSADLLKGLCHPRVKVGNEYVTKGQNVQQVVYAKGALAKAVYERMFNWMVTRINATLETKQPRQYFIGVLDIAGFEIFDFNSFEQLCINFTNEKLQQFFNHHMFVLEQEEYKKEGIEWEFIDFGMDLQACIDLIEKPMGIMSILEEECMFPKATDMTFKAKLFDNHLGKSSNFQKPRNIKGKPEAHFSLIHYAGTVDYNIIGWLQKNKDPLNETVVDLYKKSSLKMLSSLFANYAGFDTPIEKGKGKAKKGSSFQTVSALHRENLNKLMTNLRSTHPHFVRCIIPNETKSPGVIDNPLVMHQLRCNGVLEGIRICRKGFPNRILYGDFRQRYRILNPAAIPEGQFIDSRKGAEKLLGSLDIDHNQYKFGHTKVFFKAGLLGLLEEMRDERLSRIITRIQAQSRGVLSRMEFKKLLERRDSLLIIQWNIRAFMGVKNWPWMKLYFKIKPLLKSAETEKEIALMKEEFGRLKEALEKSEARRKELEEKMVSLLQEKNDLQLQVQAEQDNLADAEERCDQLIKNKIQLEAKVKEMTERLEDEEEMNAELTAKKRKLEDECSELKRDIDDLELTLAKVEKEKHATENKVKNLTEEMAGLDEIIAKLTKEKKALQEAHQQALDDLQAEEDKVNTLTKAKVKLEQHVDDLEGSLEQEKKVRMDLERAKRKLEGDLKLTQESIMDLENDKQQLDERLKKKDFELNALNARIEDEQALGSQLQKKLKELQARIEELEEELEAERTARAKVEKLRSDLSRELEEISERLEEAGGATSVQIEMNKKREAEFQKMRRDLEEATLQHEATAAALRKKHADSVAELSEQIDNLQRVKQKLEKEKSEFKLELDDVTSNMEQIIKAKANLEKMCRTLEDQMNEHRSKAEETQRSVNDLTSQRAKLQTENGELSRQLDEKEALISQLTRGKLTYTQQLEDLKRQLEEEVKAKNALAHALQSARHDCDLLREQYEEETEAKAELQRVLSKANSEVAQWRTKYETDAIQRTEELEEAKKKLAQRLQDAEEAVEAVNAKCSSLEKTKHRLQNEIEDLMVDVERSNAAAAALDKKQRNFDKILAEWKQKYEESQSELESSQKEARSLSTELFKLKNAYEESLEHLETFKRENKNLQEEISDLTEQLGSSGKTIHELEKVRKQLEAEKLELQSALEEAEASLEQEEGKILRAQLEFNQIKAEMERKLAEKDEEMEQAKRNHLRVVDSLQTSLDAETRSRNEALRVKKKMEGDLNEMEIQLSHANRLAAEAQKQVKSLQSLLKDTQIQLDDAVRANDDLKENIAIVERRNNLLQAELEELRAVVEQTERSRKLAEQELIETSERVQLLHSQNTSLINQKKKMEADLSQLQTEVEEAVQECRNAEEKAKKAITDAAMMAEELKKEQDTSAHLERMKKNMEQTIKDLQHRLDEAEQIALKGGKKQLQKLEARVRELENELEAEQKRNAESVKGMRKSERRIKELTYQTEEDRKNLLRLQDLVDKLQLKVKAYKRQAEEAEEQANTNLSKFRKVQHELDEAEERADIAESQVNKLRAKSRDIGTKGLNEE
UniProt P85100, whole entry partner: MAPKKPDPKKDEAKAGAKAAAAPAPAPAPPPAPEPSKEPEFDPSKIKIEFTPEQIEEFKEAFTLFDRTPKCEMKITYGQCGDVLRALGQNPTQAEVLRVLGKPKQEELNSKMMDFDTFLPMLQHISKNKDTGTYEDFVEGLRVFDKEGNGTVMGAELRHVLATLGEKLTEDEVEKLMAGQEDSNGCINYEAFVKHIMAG
UniProt Q3SZE5, whole entry partner: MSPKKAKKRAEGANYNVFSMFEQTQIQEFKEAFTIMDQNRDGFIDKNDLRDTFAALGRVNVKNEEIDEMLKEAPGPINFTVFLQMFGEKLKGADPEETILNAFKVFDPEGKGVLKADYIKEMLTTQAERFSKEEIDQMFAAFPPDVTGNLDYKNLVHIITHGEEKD

Row | Compound | Myosin Activation (AC20)
1 | Cc1ccccc1S(=O)(=O)C1(C2CCN(C(=O)Nc3ccncc3)CC2)CC1 | +++ (+++ represents myosin activation value AC20 < 2 µM)
2 | Cn1nc(C2CC2)cc1S(=O)(=O)C(F)(F)C1CCN(C(=O)Nc2ccnnc2)CC1 | ++ (++ represents myosin activation value AC20 from 2 µM - 5 µM)
3 | CC(F)(C1CCN(C(=O)Nc2ccnnc2)CC1)S(=O)(=O)c1cccc(C#N)c1 (stereo not drawn) | +++ (+++ represents myosin activation value AC20 < 2 µM)
4 | Cc1cc(NC(=O)N2CCC(C(C)(C)S(=O)(=O)c3cn(C)nc3C(F)F)CC2)no1 | + (+ represents myosin activation value AC20 > 5 µM)
5 | CC(C)(C1CCN(C(=O)Nc2ccnc(Cl)c2)CC1)S(=O)(=O)c1cccc(F)c1 | ++ (++ represents myosin activation value AC20 from 2 µM - 5 µM)
6 | CC(F)(C1CCN(C(=O)Nc2ccnnc2)CC1)S(=O)(=O)c1cccc(Cl)c1 (stereo not drawn) | +++ (+++ represents myosin activation value AC20 < 2 µM)
7 | Cn1cc(S(=O)(=O)C(C)(C)C2CCN(C(=O)Nc3nnco3)CC2)c(C(F)F)n1 | + (+ represents myosin activation value AC20 > 5 µM)
8 | C[C@@](F)(C1CCN(C(=O)Nc2ccon2)CC1)S(=O)(=O)c1cccc(F)c1 | + (+ represents myosin activation value AC20 > 5 µM)
9 | CCn1nccc1S(=O)(=O)C(C)(C)C1CCN(C(=O)Nc2ccncc2)CC1 | ++ (++ represents myosin activation value AC20 from 2 µM - 5 µM)
10 | Cc1cnccc1S(=O)(=O)C(F)(F)C1CCN(C(=O)Nc2ccnnc2)CC1 | ++ (++ represents myosin activation value AC20 from 2 µM - 5 µM)
11 | CC(F)(C1CCN(C(=O)Nc2cccnc2)CC1)S(=O)(=O)c1cccc(F)c1 (stereo not drawn) | ++ (++ represents myosin activation value AC20 from 2 µM - 5 µM)
12 | CC(C)(C1CCN(C(=O)Nc2ccnnc2)CC1)S(=O)(=O)c1ccccc1Cl | +++ (+++ represents myosin activation value AC20 < 2 µM)
13 | Cc1cc(S(=O)(=O)C(F)(F)C2CCN(C(=O)Nc3ccnnc3)CC2)n(C2CC2)n1 | + (+ represents myosin activation value AC20 > 5 µM)
14 | Cn1nc(C(F)(F)F)cc1S(=O)(=O)[C@@](C)(F)C1CCN(C(=O)Nc2ccon2)CC1 | +++ (+++ represents myosin activation value AC20 < 2 µM)
15 | O=C(Nc1ccnnc1)N1CCC(CS(=O)(=O)c2cccc(F)c2)CC1 | + (+ represents myosin activation value AC20 > 5 µM)
16 | O=C(Nc1ccnnc1)N1CCC(C(F)(F)S(=O)(=O)c2ccc(C3CC3)nc2)CC1 | ++ (++ represents myosin activation value AC20 from 2 µM - 5 µM)
17 | Cc1ccccc1S(=O)(=O)C(C)(F)C1CCN(C(=O)Nc2ccnnc2)CC1 (stereo not drawn) | +++ (+++ represents myosin activation value AC20 < 2 µM)
18 | Cn1cc(S(=O)(=O)[C@](C)(F)C2CCN(C(=O)Nc3ccon3)CC2)c(C(F)F)n1 | + (+ represents myosin activation value AC20 > 5 µM)
19 | C[C@](F)(C1CCN(C(=O)Nc2ccnc(C#N)c2)CC1)S(=O)(=O)c1cccc(F)c1 | + (+ represents myosin activation value AC20 > 5 µM)
20 | Cn1cc(S(=O)(=O)C(F)(F)C2CCN(C(=O)Nc3ccnc(F)c3)CC2)c(C(F)F)n1 | + (+ represents myosin activation value AC20 > 5 µM)
21 | Cc1ncc(NC(=O)N2CCC(C(C)(C)S(=O)(=O)c3cn(C)nc3C(F)F)CC2)cn1 | + (+ represents myosin activation value AC20 > 5 µM)

Row | Compound | Myosin Activation (AC20)
22 | O=C(Nc1ccnnc1)N1CCC(C(F)(F)S(=O)(=O)c2cnn3ccccc23)CC1 | ++ (++ represents myosin activation value AC20 from 2 µM - 5 µM)
23 | O=C(Nc1ccncc1)N1CCC(C2(S(=O)(=O)c3cccc(F)c3)CCC2)CC1 | +++ (+++ represents myosin activation value AC20 < 2 µM)
24 | CC(C)(C1CCN(C(=O)Nc2cncc(F)c2)CC1)S(=O)(=O)c1cccc(F)c1 | ++ (++ represents myosin activation value AC20 from 2 µM - 5 µM)
25 | Cc1ccc(NC(=O)N2CCC(C(F)(F)S(=O)(=O)c3cn(C)nc3C(F)F)CC2)cn1 | + (+ represents myosin activation value AC20 > 5 µM)
26 | O=C(Nc1ccncc1)N1CCC(C2(S(=O)(=O)c3cccc(F)c3)CC2)CC1 | +++ (+++ represents myosin activation value AC20 < 2 µM)
27 | Cn1nc(C(F)F)cc1S(=O)(=O)C(C)(F)C1CCN(C(=O)Nc2ccon2)CC1 (stereo not drawn) | +++ (+++ represents myosin activation value AC20 < 2 µM)
28 | Cc1cc(S(=O)(=O)C(F)(F)C2CCN(C(=O)Nc3ccnnc3)CC2)n(C(C)C)n1 | + (+ represents myosin activation value AC20 > 5 µM)
29 | Cc1cnccc1NC(=O)N1CCC(C(C)(C)S(=O)(=O)c2cccc(F)c2)CC1 | + (+ represents myosin activation value AC20 > 5 µM)
30 | O=C(Nc1cncs1)N1CCC(CS(=O)(=O)c2cccc(F)c2)CC1 | + (+ represents myosin activation value AC20 > 5 µM)
31 | COc1ccc(Cl)c(S(=O)(=O)C(F)(F)C2CCN(C(=O)Nc3ccnnc3)CC2)c1 | +++ (+++ represents myosin activation value AC20 < 2 µM)
32 | Cn1cc(S(=O)(=O)C(C)(F)C2CCN(C(=O)Nc3ccc(F)nc3)CC2)c(C(F)(F)F)n1 (stereo not drawn) | + (+ represents myosin activation value AC20 > 5 µM)
33 | 4-(1-Fluoro-1-((3-fluorophenyl)sulfonyl)ethyl)-N-(1H-pyrazol-4-yl)piperidine-1-carboxamide | ++ (++ represents myosin activation value AC20 from 2 µM - 5 µM)
34 | Cn1cc(S(=O)(=O)C(C)(C)C2CCN(C(=O)Nc3ccc(F)nc3)CC2)c(C(F)(F)F)n1 | ++ (++ represents myosin activation value AC20 from 2 µM - 5 µM)
35 | Cc1cc(S(=O)(=O)C(C)(C)C2CCN(C(=O)Nc3ccncc3)CC2)n(C)n1 | +++ (+++ represents myosin activation value AC20 < 2 µM)
36 | CC(F)(C1CCN(C(=O)Nc2ccnnc2)CC1)S(=O)(=O)c1ccc(C(F)(F)F)nc1 (stereo not drawn) | +++ (+++ represents myosin activation value AC20 < 2 µM)
37 | Cn1nccc1-c1ccc(S(=O)(=O)C(F)(F)C2CCN(C(=O)Nc3ccnnc3)CC2)cc1 | + (+ represents myosin activation value AC20 > 5 µM)
38 | Cn1nc(Cl)cc1S(=O)(=O)C(C)(C)C1CCN(C(=O)Nc2ccnc(F)c2)CC1 | ++ (++ represents myosin activation value AC20 from 2 µM - 5 µM)
39 | CC(F)(C1CCN(C(=O)Nc2ccnc(F)c2)CC1)S(=O)(=O)c1cccc(F)c1 (stereo not drawn) | ++ (++ represents myosin activation value AC20 from 2 µM - 5 µM)
40 | COc1ccccc1S(=O)(=O)C(C)(C)C1CCN(C(=O)Nc2ccns2)CC1 | ++ (++ represents myosin activation value AC20 from 2 µM - 5 µM)
41 | Cn1cc(S(=O)(=O)[C@@](C)(F)C2CCN(C(=O)Nc3ccc(C(F)(F)F)nc3)CC2)c(C(F)F)n1 | + (+ represents myosin activation value AC20 > 5 µM)
42 | Cn1nc(C(F)F)cc1S(=O)(=O)C(C)(C)C1CCN(C(=O)Nc2ccc(F)nc2)CC1 | ++ (++ represents myosin activation value AC20 from 2 µM - 5 µM)

Row | Compound | Myosin Activation (AC20)
43 | Cc1cc(NC(=O)N2CCC([C@](C)(F)S(=O)(=O)c3cn(C)nc3C(F)F)CC2)ccn1 | +++ (+++ represents myosin activation value AC20 < 2 µM)
44 | COc1ccccc1S(=O)(=O)C(F)(F)C1CCN(C(=O)Nc2ccnnc2)CC1 | + (+ represents myosin activation value AC20 > 5 µM)
45 | Cc1cc(NC(=O)N2CCC(C(C)(C)S(=O)(=O)c3cccc(F)c3)CC2)no1 | + (+ represents myosin activation value AC20 > 5 µM)
46 | CC(C)(C1CCN(C(=O)Nc2ccnnc2)CC1)S(=O)(=O)c1ccc(C(F)(F)F)nc1 | ++ (++ represents myosin activation value AC20 from 2 µM - 5 µM)
47 | Cn1nc(C(F)(F)F)cc1S(=O)(=O)C(C)(C)C1CCN(C(=O)Nc2ccnnc2)CC1 | +++ (+++ represents myosin activation value AC20 < 2 µM)
48 | O=C(Nc1cnns1)N1CCC(C(F)(F)S(=O)(=O)c2ccc(C(F)(F)F)cc2)CC1 | ++ (++ represents myosin activation value AC20 from 2 µM - 5 µM)
49 | CC(C)(C1(O)CCN(C(=O)Nc2ccnnc2)CC1)S(=O)(=O)c1cccc(F)c1 | + (+ represents myosin activation value AC20 > 5 µM)
50 | COc1ccc(S(=O)(=O)C(C)(F)C2CCN(C(=O)Nc3ccnnc3)CC2)cn1 (stereo not drawn) | +++ (+++ represents myosin activation value AC20 < 2 µM)
51 | N#Cc1ccccc1S(=O)(=O)C(F)(F)C1CCN(C(=O)Nc2ccnnc2)CC1 | ++ (++ represents myosin activation value AC20 from 2 µM - 5 µM)
52 | Cn1nc(C(F)(F)F)cc1S(=O)(=O)C(C)(C)C1CCN(C(=O)Nc2ccon2)CC1 | ++ (++ represents myosin activation value AC20 from 2 µM - 5 µM)
53 | Cn1nccc1S(=O)(=O)C(C)(F)C1CCN(C(=O)Nc2ccnc(F)c2)CC1 (stereo not drawn) | + (+ represents myosin activation value AC20 > 5 µM)
54 | CC(C)(C1CCN(C(=O)Nc2cncnc2)CC1)S(=O)(=O)c1cccc(F)c1 | + (+ represents myosin activation value AC20 > 5 µM)
55 | CC(C)(C1CCN(C(=O)Nc2ccon2)CC1)S(=O)(=O)c1cccc(C#N)c1 | ++ (++ represents myosin activation value AC20 from 2 µM - 5 µM)
56 | CC(C)(C1CCN(C(=O)Nc2ccnnc2)CC1)S(=O)(=O)c1cccc(F)c1 | +++ (+++ represents myosin activation value AC20 < 2 µM)
57 | CC(F)(C1CCN(C(=O)Nc2cncc(F)c2)CC1)S(=O)(=O)c1cccc(F)c1 (stereo not drawn) | + (+ represents myosin activation value AC20 > 5 µM)
58 | COc1c(F)cccc1S(=O)(=O)C(F)(F)C1CCN(C(=O)Nc2ccnnc2)CC1 | ++ (++ represents myosin activation value AC20 from 2 µM - 5 µM)
59 | Cn1nc(Cl)cc1S(=O)(=O)C(C)(C)C1CCN(C(=O)Nc2ccnnc2)CC1 | +++ (+++ represents myosin activation value AC20 < 2 µM)
60 | Cn1cc(S(=O)(=O)C(F)(F)C2CCN(C(=O)Nc3ccc(C#N)nc3)CC2)c(C(F)F)n1 | + (+ represents myosin activation value AC20 > 5 µM)
61 | CC(F)(C1CCN(C(=O)Nc2ccc(F)nc2)CC1)S(=O)(=O)c1cccc(C#N)c1 (stereo not drawn) | + (+ represents myosin activation value AC20 > 5 µM)
62 | CC(C)(C1CCN(C(=O)Nc2ccnnc2)CC1)S(=O)(=O)c1ccc(C#N)cc1 | ++ (++ represents myosin activation value AC20 from 2 µM - 5 µM)
63 | C[C@](F)(C1CCN(C(=O)Nc2ccon2)CC1)S(=O)(=O)c1ccc(OC(F)F)nc1 | +++ (+++ represents myosin activation value AC20 < 2 µM)

— patent publication EP4847505A1, “4-METHYLSULFONYL-SUBSTITUTED PIPERIDINE UREA COMPOUNDS” (dated 2026)
